# Laboratory results: paper PMC9554468, “Assessing potency and binding kinetics of soluble adenylyl cyclase (sAC) inhibitors to maximize therapeutic potential” (Frontiers in Physiology, 2022)
# Tests used:
# [1] = target: T1, immobilized His-tagged human sACt protein (Homo sapiens, UniProt Q96PN6); test: surface plasmon resonance with purified sAC protein; format: binding
# T1 construct: SPR used highly pure C-terminal tagged sACt-His6; made in house; host or cells: Sf9 insect cells (baculovirus)
# T1 sequence (Q96PN6 1-469 limits assumed): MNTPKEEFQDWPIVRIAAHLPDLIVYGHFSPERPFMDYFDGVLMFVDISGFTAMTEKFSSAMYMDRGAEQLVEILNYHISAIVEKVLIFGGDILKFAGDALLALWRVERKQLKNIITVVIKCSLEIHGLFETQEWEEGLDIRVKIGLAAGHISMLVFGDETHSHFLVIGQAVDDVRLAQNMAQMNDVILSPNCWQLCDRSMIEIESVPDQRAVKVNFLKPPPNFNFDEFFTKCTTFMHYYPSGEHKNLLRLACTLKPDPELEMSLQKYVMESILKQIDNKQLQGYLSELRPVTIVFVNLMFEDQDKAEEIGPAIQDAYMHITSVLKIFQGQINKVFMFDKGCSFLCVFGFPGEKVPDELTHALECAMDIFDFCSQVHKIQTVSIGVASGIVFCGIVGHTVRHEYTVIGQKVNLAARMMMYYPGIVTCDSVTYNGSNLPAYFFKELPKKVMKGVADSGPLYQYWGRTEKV
# [2] = target: T2, purified recombinant human soluble adenylyl cyclase (sAC) protein (Homo sapiens, UniProt Q96PN6); test: biochemical; conditions: ~0.25 nM sAC, 2 mM ATP, 10 mM Mn2+, 30°C; read-out: Subnanomolar assay IC50
# T2 sequence (Q96PN6 1-469 limits assumed): T1 sequence (Q96PN6 1-469 limits assumed)
"Ki ([1]; 25°C SPR affinity, 25°C)","Ki ([1]; 37°C SPR affinity, 37°C)",IC50 [2],Structure (SMILES)
193 ± 27 nM,423 ± 16 nM,,Cc1c(Cc2ccccc2)c(-c2cc(Cl)nc(N)n2)nn1C [TDI-10229]
,,11 nM,Cn1cc(Cc2ccccc2OCCN2CCOCC2)c(-c2cc(Cl)nc(N)n2)n1 [TDI-11155]
